These are literature values, as cited in patent US8623416B2 (priority 2009, dated 2014).

For series [1] the following is noted: in vivo, cited from earlier work.
Series [2] concerns tissue and cellular membranes. The conditions noted are these: cited from earlier work.
For series [3] the following is noted: in vivo; cited from earlier work.

As to “3 beta-N-1-(N-[3-(4-aminobutyl)]-1,3-diaminopropane)-7 alpha,24 zeta-dihydroxy-5 alpha-cholestane 24-sulfate [squalamine]”, in series [1] (human), the “mean clearance (percentage coefficient of variation)” value is on record as 2.67 liters/h/m(2), the mean half-life is 9.46 h and the “mean volume of distribution” value is recorded as 36.84 liters/m(2). Further, in series [1], the principal dose-limiting toxicity entry is “Hepatotoxicity” and the steady-state concentrations is given as 20.08 micro g/ml. For the same substance, the “concentrations of squalamine that damage tissue and cellular membranes” value in series [2] was > 100 µg/mL. Moreover, in series [3], the “dose selected as the Phase II dose” value is on record as 300 mg/m(2)/day and the dose-limiting toxicity result is “two of three patients at 400 mg/m(2)/day had dose-limiting toxicity”.
